Results from patent US20100048498A1, “STABLE NON-DIHYDRATE AZITHROMYCIN ORAL SUSPENSIONS” (priority 2004, published 2010).

Assay: Effects of flavoring components upon azithromycin form F conversion in constituted POS
Assay type: physicochemical
Conditions: room temperature
Description: An identical test was also performed using form F azithromycin. The calculated solvent levels were again used to create solutions of these single components in water and used to constitute samples of POS formulation I using form F. The constituted drug suspensions were stored at room temperature for 24-hours, before being filtered and analyzed by SS-NMR for quantification of azithromycin form change over this interval. POS formulation II was constituted with water and stored identically to serve as a control for this experiment. The design and results of this investigation can be seen in Table 9.

[1] = Formulation I constituted with 18 mL 0.0577 mg/ml benzaldehyde
[2] = Formulation I constituted with 18 mL 0.922 mg/ml 3-methyl-butyl acetate + 0.0577 mg/ml benzaldehyde
[3] = Formulation I constituted with 18 mL 0.922 mg/ml 3-methyl-butyl acetate
[4] = Formulation I constituted with 18 mL 1.666 mg/ml 3-methyl-butyl acetate
[5] = Formulation II constituted with 18 mL Water

In the case of `CCC1OC(=O)C(C)C(O[C@H]2C[C@@](C)(OC)[C@@H](O)C(C)O2)C(C)[C@@H](OC2OC(C)CC(N(C)C)[C@H]2O)[C@@](C)(O)C[C@@H](C)CN(C)[C@H](C)[C@@H](O)[C@]1(C)O` (stereo partly shown) [Form F, azithromycin monohydrate hemi-ethanol solvate], the “% A (SS-NMR Evaluation after 24 hrs constitution)” value [1] is reported as 0%, the “% G (SS-NMR Evaluation after 24 hrs constitution)” value [1] is reported as 0% and the “% A (SS-NMR Evaluation after 24 hrs constitution)” value [2] is reported as 6%. For the same compound, the “% G (SS-NMR Evaluation after 24 hrs constitution)” value [2] was 0%, the “% A (SS-NMR Evaluation after 24 hrs constitution)” value [3] was 0% and the “% G (SS-NMR Evaluation after 24 hrs constitution)” value [3] was 0%. For the same compound, the “% A (SS-NMR Evaluation after 24 hrs constitution)” value [4] was 5%, the “% G (SS-NMR Evaluation after 24 hrs constitution)” value [4] was 0% and the “% A (SS-NMR Evaluation after 24 hrs constitution)” value [5] was 59%. The “% G (SS-NMR Evaluation after 24 hrs constitution)” value [5] was 41%.
